Laboratory results as given in ChEMBL document CHEMBL1125021, “4-[(Carboxymethyl)oxy]- and 4-[(carboxymethyl)amino]-5,7-dichloroquinoline-2-carboxylic acid: new antagonists of the strychnine-insensitive glycine binding site on the N-methyl-D-aspartate receptor complex” (J Med Chem, 1990).

Molecular target: Glutamate NMDA receptor
Assay: Binding activity against N-methyl-D-aspartate glutamate receptor in rat brain homogenate using [3H]CPP as the radioligand.
Type: tissue-based

Work on `O=C(O)c1cc(=O)c2ccccc2[nH]1` [TRANSTORINE] yielded an IC50 of 71 µM.
